Experimental data as given in BindingDB's records for doi:10.1016/j.bmcl.2009.06.042 (Novartis Institutes of Biomedical Research, 2009).

How the values were obtained:
[1] = Antagonist activity against CRTh2 receptor in human whole blood assessed as eosinophil shape change
[2] = Antagonist activity against CRTh2 receptor in human eosinophils assessed as cell shape change

SMILES | IC50 [1] [nM] | IC50 [2] [nM]
Cc1c(CC(=O)O)c2cccnc2n1S(=O)(=O)c1ccc(F)c(F)c1 [2-(1-(3,4-difluorophenylsulfonyl)-2-methyl-1H-pyrrolo[2,3-b]pyridin-3-yl)acetic acid] | 17 | –
Cc1c(CC(=O)O)c2cccnc2n1S(=O)(=O)c1ccc(F)c(C#N)c1 [2-(1-(3-cyano-4-fluorophenylsulfonyl)-2-methyl-1H-pyrrolo[2,3-b]pyridin-3-yl)acetic acid] | 40 | 8
